The results in this text go back to patent US20030203082A1, “Inhibition of non-enzymatic browning” (Givaudan SA, priority 2002, published 2003).

The conditions of this assay: after 120 minutes at 85° C.; inhibitor 7 mM (resin-bound: theoretical 7 mM).

For `SCCCS` [free inhibitor, 1,3-propane dithiol], the “browning of the juice (absorbance at 420 nm; control after 175 minutes considered as 100% browning)” value is listed as 10%.
